Literature values as cited in patent US20090214464A1, “COMPOUNDS FOR FLAVIVIRIDAE TREATMENT” (priority 2004, published 2009).

Tested on: HCV
Settings: human, in vivo; cited from earlier work

With NC(=O)c1ncn([C@@H]2O[C@H](CO)[C@@H](O)[C@H]2O)n1 [Ribavirin, 1-β-D-ribofuranosyl-1-1,2,4-triazole-3-caroxamide] as the compound, how does the toxicity read?
The toxicity was “induce anemia”.
